Measurements taken from US20050020854A1, “Alkyl(en)ylglycerinether carboxylic acids” (priority 2001, published 2005).

System: mucous membrane (HET-CAM)
Assay: Mucous membrane compatibility, in vitro HET-CAM test, reaction time method
Protocol: Mucous membrane compatibility was evaluated by the in vitro HET-CAM test using the reaction time method (conc. 5% in 2×-distilled water, pH=6).

Question: For “mono-C12-glycerol ether+4EO ether carboxylic acid [Example 2]”, which Evaluation is on record?
Answer: Slightly irritating
